Test results reported in US20120087985A1, “SMALL PEPTIDE SEQUENCES FOR STABILIZING BIOMOLECULES” (Biodel Inc., priority 2010, published 2012).

Test: Light microscopy of SPS in suspension
Conditions: mildly acidic range of pH about 5, light microscopy image

H-Aspartic Acid-Tryptophan-Aspartic Acid —OH
particle size range: 300-900 μm
